Measured values reported in patent publication US20140100156A1 (SANOFI, priority 2012, published 2014).

Amino acid sequences for entries named in this document (tags omitted). Residues count along the entry.
UniProt P43220, 24-463: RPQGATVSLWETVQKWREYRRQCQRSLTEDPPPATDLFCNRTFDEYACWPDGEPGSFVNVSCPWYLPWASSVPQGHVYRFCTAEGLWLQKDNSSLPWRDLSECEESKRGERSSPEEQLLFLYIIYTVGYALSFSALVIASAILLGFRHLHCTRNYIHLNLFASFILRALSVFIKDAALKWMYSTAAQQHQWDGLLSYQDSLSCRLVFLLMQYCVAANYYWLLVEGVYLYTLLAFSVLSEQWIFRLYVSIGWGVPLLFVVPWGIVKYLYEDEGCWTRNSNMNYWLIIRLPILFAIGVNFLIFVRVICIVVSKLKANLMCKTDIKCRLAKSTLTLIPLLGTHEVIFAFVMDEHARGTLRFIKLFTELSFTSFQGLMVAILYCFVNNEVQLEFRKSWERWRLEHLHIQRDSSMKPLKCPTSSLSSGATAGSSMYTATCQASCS
UniProt P47871, 26-477: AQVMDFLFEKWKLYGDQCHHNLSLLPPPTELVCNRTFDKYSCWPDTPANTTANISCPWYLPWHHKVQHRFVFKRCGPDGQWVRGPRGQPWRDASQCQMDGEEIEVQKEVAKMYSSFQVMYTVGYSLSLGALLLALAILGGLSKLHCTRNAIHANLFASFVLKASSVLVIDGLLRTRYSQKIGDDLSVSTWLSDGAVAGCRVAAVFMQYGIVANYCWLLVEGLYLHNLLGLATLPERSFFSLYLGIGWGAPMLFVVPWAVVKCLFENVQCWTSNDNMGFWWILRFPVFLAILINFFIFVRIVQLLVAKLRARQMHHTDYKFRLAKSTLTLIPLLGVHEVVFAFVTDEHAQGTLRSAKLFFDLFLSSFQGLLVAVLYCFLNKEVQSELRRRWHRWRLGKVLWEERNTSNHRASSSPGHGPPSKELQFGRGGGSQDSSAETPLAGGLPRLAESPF

Tests used:
human GLP-1 receptor = target: T1, human GLP-1 receptor (Homo sapiens, UniProt P43220); assay: cAMP response (HTRF) of HEK-293 cells stably expressing human GLP-1 receptor; assay type: cell-based; settings: Table 5; cAMP, HEK-293; read-out: EC50 hGLP-1R
T1 construct: expressed in transfected cells; host or cells: HEK-293

human glucagon receptor = target: T2, human glucagon receptor (Homo sapiens, UniProt P47871); assay: cAMP response (HTRF) of HEK-293 cells stably expressing human glucagon receptor; assay type: cell-based; settings: Table 5; cAMP, HEK-293; read-out: EC50 hGlucagon-R
T2 construct: expressed in transfected cells; host or cells: HEK-293

Row | SMILES | EC50 (human GLP-1 receptor) [pM] | EC50 (human glucagon receptor) [pM]
1 | CCCCCCCCCCCCCCCC(=O)N[C@@H](CCC(=O)NCCCC[C@H](NC(=O)[C@H](CCC(N)=O)NC(=O)[C@H](CCCCN)NC(=O)[C@H](CO)NC(=O)[C@H](CC(C)C)NC(=O)[C@H](CC(=O)O)NC(=O)[C@H](CO)NC(=O)[C@@H](NC(=O)[C@H](Cc1ccccc1)NC(=O)[C@@H](NC(=O)CNC(=O)[C@H](CCC(N)=O)NC(=O)C(C)(C)NC(=O)[C@@H](N)Cc1c[nH]cn1)[C@@H](C)O)[C@@H](C)O)C(=O)N[C@@H](CCC(=O)O)C(=O)N[C@@H](CO)C(=O)N[C@@H](CCCNC(=N)N)C(=O)N[C@@H](CCCNC(=N)N)C(=O)N[C@@H](C)C(=O)N[C@@H](CCC(N)=O)C(=O)N[C@@H](CC(=O)O)C(=O)N[C@@H](Cc1ccccc1)C(=O)N[C@H](C(=O)N[C@@H](CCC(=O)O)C(=O)N[C@@H](Cc1c[nH]c2ccccc12)C(=O)N[C@@H](CC(C)C)C(=O)N[C@@H](CCCCN)C(=O)N[C@@H](C)C(=O)NCC(=O)NCC(=O)N1CCC[C@H]1C(=O)N[C@@H](CO)C(=O)N[C@@H](CO)C(=O)NCC(=O)N[C@@H](C)C(=O)N1CCC[C@H]1C(=O)N1CCC[C@H]1C(=O)N1CCC[C@H]1C(=O)N[C@@H](CO)C(N)=O)[C@@H](C)CC)C(=O)O [compound 77] | 4.3 | 11.9
2 | CCCCCCCCCCCCCCCC(=O)N[C@@H](CCC(=O)NCCCC[C@H](NC(=O)[C@H](CCC(N)=O)NC(=O)[C@H](CCCCN)NC(=O)[C@H](CO)NC(=O)[C@H](CC(C)C)NC(=O)[C@H](CC(=O)O)NC(=O)[C@H](CO)NC(=O)[C@@H](NC(=O)[C@H](Cc1ccccc1)NC(=O)[C@@H](NC(=O)CNC(=O)[C@H](CCC(N)=O)NC(=O)[C@@H](CO)NC(=O)[C@@H](N)Cc1c[nH]cn1)[C@@H](C)O)[C@@H](C)O)C(=O)N[C@@H](CC(=O)O)C(=O)N[C@@H](CO)C(=O)N[C@@H](CCCNC(=N)N)C(=O)N[C@@H](CCCNC(=N)N)C(=O)N[C@@H](C)C(=O)N[C@@H](CCC(N)=O)C(=O)N[C@@H](CC(=O)O)C(=O)N[C@@H](Cc1ccccc1)C(=O)N[C@H](C(=O)N[C@@H](CCC(=O)O)C(=O)N[C@@H](Cc1c[nH]c2ccccc12)C(=O)N[C@@H](CC(C)C)C(=O)N[C@@H](CCCCN)C(=O)NC(C)(C)C(=O)NCC(=O)NCC(=O)N1CCC[C@H]1C(=O)N[C@@H](CO)C(=O)N[C@@H](CO)C(=O)NCC(=O)N[C@@H](C)C(=O)N1CCC[C@H]1C(=O)N1CCC[C@H]1C(=O)N1CCC[C@H]1C(=O)N[C@@H](CO)C(N)=O)[C@@H](C)CC)C(=O)O [compound 78] | 17.8 | 1.6
3 | CCCCCCCCCCCCCCCC(=O)N[C@@H](CCC(=O)NCCCC[C@H](NC(=O)[C@H](CCC(N)=O)NC(=O)[C@H](CCCCN)NC(=O)[C@H](CO)NC(=O)[C@H](CC(C)C)NC(=O)[C@H](CC(=O)O)NC(=O)[C@H](CO)NC(=O)[C@@H](NC(=O)[C@H](Cc1ccccc1)NC(=O)[C@@H](NC(=O)CNC(=O)[C@H](CCC(N)=O)NC(=O)[C@@H](CO)NC(=O)[C@@H](N)Cc1c[nH]cn1)[C@@H](C)O)[C@@H](C)O)C(=O)N[C@@H](CCC(=O)O)C(=O)N[C@@H](CO)C(=O)N[C@@H](CCCNC(=N)N)C(=O)N[C@@H](CCCNC(=N)N)C(=O)N[C@@H](C)C(=O)N[C@@H](CCC(N)=O)C(=O)N[C@@H](CC(=O)O)C(=O)N[C@@H](Cc1ccccc1)C(=O)N[C@H](C(=O)N[C@@H](CCC(=O)O)C(=O)N[C@@H](Cc1c[nH]c2ccccc12)C(=O)N[C@@H](CC(C)C)C(=O)N[C@@H](CCCCN)C(=O)NC(C)(C)C(=O)NCC(=O)NCC(=O)N1CCC[C@H]1C(=O)N[C@@H](CO)C(=O)N[C@@H](CO)C(=O)NCC(=O)N[C@@H](C)C(=O)N1CCC[C@H]1C(=O)N1CCC[C@H]1C(=O)N1CCC[C@H]1C(=O)N[C@@H](CO)C(N)=O)[C@@H](C)CC)C(=O)O [compound 79] | 23.3 | 7.5
4 | CCCCCCCCCCCCCCCC(=O)N[C@@H](CCC(=O)NCCCC[C@H](NC(=O)[C@H](CCC(N)=O)NC(=O)[C@H](CCCCN)NC(=O)[C@H](CO)NC(=O)[C@H](CC(C)C)NC(=O)[C@H](CC(=O)O)NC(=O)[C@H](CO)NC(=O)[C@@H](NC(=O)[C@H](Cc1ccccc1)NC(=O)[C@@H](NC(=O)CNC(=O)[C@H](CCC(N)=O)NC(=O)[C@@H](CO)NC(=O)[C@@H](N)Cc1c[nH]cn1)[C@@H](C)O)[C@@H](C)O)C(=O)N[C@@H](CC(=O)O)C(=O)N[C@@H](CO)C(=O)N[C@@H](CCCNC(=N)N)C(=O)N[C@@H](CCCNC(=N)N)C(=O)N[C@@H](C)C(=O)N[C@@H](CCC(N)=O)C(=O)N[C@@H](CC(=O)O)C(=O)N[C@@H](Cc1ccccc1)C(=O)N[C@H](C(=O)N[C@@H](CCC(=O)O)C(=O)N[C@@H](Cc1c[nH]c2ccccc12)C(=O)N[C@@H](CC(C)C)C(=O)N[C@@H](CCCCN)C(=O)N[C@@H](CC(=O)O)C(=O)NCC(=O)NCC(=O)N1CCC[C@H]1C(=O)N[C@@H](CO)C(=O)N[C@@H](CO)C(=O)NCC(=O)N[C@@H](C)C(=O)N1CCC[C@H]1C(=O)N1CCC[C@H]1C(=O)N1CCC[C@H]1C(=O)N[C@@H](CO)C(N)=O)[C@@H](C)CC)C(=O)O [compound 80] | 5.8 | 1
5 | CCCCCCCCCCCCCCCC(=O)NCCCC[C@H](NC(=O)[C@H](CCC(N)=O)NC(=O)[C@H](CCCCN)NC(=O)[C@H](CO)NC(=O)[C@H](CC(C)C)NC(=O)[C@H](CC(=O)O)NC(=O)[C@H](CO)NC(=O)[C@@H](NC(=O)[C@H](Cc1ccccc1)NC(=O)[C@@H](NC(=O)CNC(=O)[C@H](CCC(N)=O)NC(=O)[C@@H](CO)NC(=O)[C@@H](N)Cc1c[nH]cn1)[C@@H](C)O)[C@@H](C)O)C(=O)N[C@@H](CC(=O)O)C(=O)N[C@@H](CO)C(=O)N[C@@H](CCCNC(=N)N)C(=O)N[C@@H](CCCNC(=N)N)C(=O)N[C@@H](C)C(=O)N[C@@H](CCC(N)=O)C(=O)N[C@@H](CC(=O)O)C(=O)N[C@@H](Cc1ccccc1)C(=O)N[C@H](C(=O)N[C@@H](CCC(=O)O)C(=O)N[C@@H](Cc1c[nH]c2ccccc12)C(=O)N[C@@H](CC(C)C)C(=O)N[C@@H](CCCCN)C(=O)N[C@@H](CC(=O)O)C(=O)NCC(=O)NCC(=O)N1CCC[C@H]1C(=O)N[C@@H](CO)C(=O)N[C@@H](CO)C(=O)NCC(=O)N[C@@H](C)C(=O)N1CCC[C@H]1C(=O)N1CCC[C@H]1C(=O)N1CCC[C@H]1C(=O)N[C@@H](CO)C(N)=O)[C@@H](C)CC [compound 81] | 48 | 7.1
6 | CCCCCCCCCCCCCCCC(=O)NCCCC[C@H](NC(=O)[C@H](CCC(N)=O)NC(=O)[C@H](CCCCN)NC(=O)[C@H](CO)NC(=O)[C@H](CC(C)C)NC(=O)[C@H](CC(=O)O)NC(=O)[C@H](CO)NC(=O)[C@@H](NC(=O)[C@H](Cc1ccccc1)NC(=O)[C@@H](NC(=O)CNC(=O)[C@H](CCC(N)=O)NC(=O)[C@@H](CO)NC(=O)[C@@H](N)Cc1c[nH]cn1)[C@@H](C)O)[C@@H](C)O)C(=O)N[C@@H](CCC(=O)O)C(=O)N[C@@H](CO)C(=O)N[C@@H](CCCNC(=N)N)C(=O)N[C@@H](CCCNC(=N)N)C(=O)N[C@@H](C)C(=O)N[C@@H](CCC(N)=O)C(=O)N[C@@H](CC(=O)O)C(=O)N[C@@H](Cc1ccccc1)C(=O)N[C@H](C(=O)N[C@@H](CCC(=O)O)C(=O)N[C@@H](Cc1c[nH]c2ccccc12)C(=O)N[C@@H](CC(C)C)C(=O)N[C@@H](CCCCN)C(=O)N[C@@H](CCC(=O)O)C(=O)NCC(=O)NCC(=O)N1CCC[C@H]1C(=O)N[C@@H](CO)C(=O)N[C@@H](CO)C(=O)NCC(=O)N[C@@H](CCCNC(=N)N)C(=O)N1CCC[C@H]1C(=O)N1CCC[C@H]1C(=O)N1CCC[C@H]1C(=O)N[C@@H](CO)C(N)=O)[C@@H](C)CC [compound 83] | 53.9 | 41.3
